In patent publication US12358970B2, “Methods of exogenous drug activation of chemical-induced signaling complexes expressed in engineered cells in vitro and in vivo” (Seattle Children's Hospital, priority 2016, dated 2025):

How the values were obtained:
[1] = test system: IL2R-CISC expressing primary human T-cells; test: Selective enrichment of IL2R-CISC expressing T cells, flow cytometry of cis-linked GFP/mCherry marker; format: cell-based; conditions: IL2R-CISC V3 experiment; mock IL-2 treatments over 15 days
Method: Each architecture of IL2R-CISC (i.e. 1210, 1211, and 1233) was cis-linked together with GFP using 2A sequences, and placed under the control of an MND promoter in a lentiviral expression cassette (as schematized in FIG. 5, bottom). Lentiviral particles from each IL2R-CISC architecture were generated and used to transduce primary human T-cells. Following transduction, the cells were grown for 2 days in IL2, and then divided in half, with half grown in IL2 alone and half in rapamycin alone, as indicated.
Lentiviral particles from each IL2R-CISC architecture were generated and used to transduce primary human T-cells. CD4+ T cells were activated for 60 hours. The cells were then plated in a 24-well dish by plating 1 million cells per well in 1 mL medium with IL2/7/15. Lentivirus was transduced with or without beads, using 15 μL of IL2R-CISC and 3 μL of MND-GFP control with protamine sulfate at 4 μg/mL (0.5 mL medium) in a 24-well dish. […] The GFP signal was determined and the IL2R-CISC level of transduced T cells was determined. […]
Following transduction, the cells were grown for 2 days in IL2, and then divided in half, with half grown in IL2 alone and half in rapamycin alone, as indicated. […] The T cell viability was determined and the expression of GFP+ population and IL2R-CISC expression was determined by using anti-FRB antibody and a secondary APC antibody. […]

[2] = test system: STAT5 phosphorylation in IL2R-CISC expressing T cells; test: phospho-STAT5 signaling after 20 days of culture; format: cell-based, human; conditions: mock, GFP and IL2R-CISC cell types
[3] = test system: CD25 expression on IL2R-CISC V3 T-cells; test: FACS T-cell marker analysis of CISC V3 expanded cells; format: cell-based; conditions: IL2R-CISC V3 T-cells expanded 15 days in the indicated agent
Method: Peripheral blood T-cells were activated using anti-CD3/CD28 beads transduced with IL2R-CISC V3 lentivirus, expanded in IL-2 or the indicated IL2R-CISC ligand for 15 days. […] In contrast, cells expanded through their IL2R-CISC receptors have high CD25 expression, as low media IL-2 promotes minimal turnover of native IL2R.
The IL2-CISC induced signaling pathways were analyzed to determine whether the magnitude of the signaling pathway is sufficient to produce clinically relevant activity. A T-Cell marker analysis for CISC V3 expanded cells was performed, as shown in the flow cell data of FIG. 20.

With “IL-2: interleukin 2 cytokine used as comparison culture condition” as the substance, how does the “Change in mCherry positive cells” value [1] read?
Its value is “gradual reduction in mCherry positive cells”.

And the “Phosphorylation of STAT5 in response to treatment” value [2]?
Its value is “respond robustly to IL-2 treatment”.

And the CD25 expression [3]?
The CD25 expression was “generally low expression of CD25”.
